Source: ChEMBL document CHEMBL4033620, “Design, synthesis and biological evaluation of quinoline derivatives as HDAC class I inhibitors” (Eur J Med Chem, 2017)

Target: T1, Histone deacetylase 8 (Homo sapiens, UniProt Q9BY41)
T1 sequence (Q9BY41 whole entry): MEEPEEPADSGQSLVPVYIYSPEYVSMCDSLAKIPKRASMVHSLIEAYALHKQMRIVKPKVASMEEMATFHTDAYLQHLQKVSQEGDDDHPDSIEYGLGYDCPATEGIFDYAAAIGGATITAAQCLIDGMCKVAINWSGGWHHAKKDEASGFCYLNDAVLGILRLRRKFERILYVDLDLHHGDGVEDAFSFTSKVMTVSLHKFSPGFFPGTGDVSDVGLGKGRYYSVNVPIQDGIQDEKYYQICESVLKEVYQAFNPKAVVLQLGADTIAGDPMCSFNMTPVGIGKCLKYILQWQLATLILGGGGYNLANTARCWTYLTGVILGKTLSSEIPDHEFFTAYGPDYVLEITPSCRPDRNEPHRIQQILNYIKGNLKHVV
Test: Inhibition of HDAC8 (unknown origin) using substrate after 30 mins by fluorometric analysis

`O=C(CCCCCCC(=O)Nc1ccccc1)NO` [VORINOSTAT] was tested, and the IC50 was 7.47 µM.
